## Measured affinities in a library of Ab-14 light chain variants

Reference: Li et al. 2023, doi:10.1038/s41467-023-39022-2. File: FLAb, binding data.

All variants were tested on one target, the spike HR2 peptide PDVDLGDISGINAS (SARS-CoV-2).

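This is the validation round: designs drawn from the data on random variants, tested in the same kind of assay. Their group label is 14L_En_HC (En: ensemble of fine-tuned language models; HC: hill climbing; a sequence that several methods proposed may carry one label only). AlphaSeq pools MATa yeast showing the antibodies with MATalpha yeast showing the peptide. Mating (16 h, 30 °C) was followed by selection of diploids and sequencing of their barcodes. Read counts were normalised to the haploid input and turned into Kd by a linear fit to BCL2-family pairs of known affinity, for each replicate. Mating was done six times.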

Parent scFv Ab-14: VH joined to VL by three GGGGS repeats. Changes lie in the light chain CDRs alone.
VH: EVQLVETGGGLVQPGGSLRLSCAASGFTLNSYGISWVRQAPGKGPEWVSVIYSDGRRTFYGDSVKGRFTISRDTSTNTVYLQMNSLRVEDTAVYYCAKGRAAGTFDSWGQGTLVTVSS
VL: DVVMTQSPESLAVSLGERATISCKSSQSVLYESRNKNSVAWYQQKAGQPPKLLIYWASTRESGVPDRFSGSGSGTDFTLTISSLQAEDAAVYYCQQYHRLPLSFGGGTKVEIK

Variants are written as CDR1, CDR2 and CDR3 of the light chain (limits as in the source). Parent: KSSQSVLYESRNKNSVA, WASTRES, QQYHRLPLS.
Affinities are written as log10 Kd with Kd in nM; a lower number is a better binder.
A mean of the replicates is given; it leaves out those without a signal.
Where no diploid with the target was found in that replicate, the entry reads "ND": below detection, most likely a poor binder, though not proof of it.

| CDR-L1 | CDR-L2 | CDR-L3 | log10 Kd (nM) by replicate | mean, log10 nM | control signals |
|---|---|---|---|---|---|
| IISQVDAYSSRNKNSIA | DQSTRGS | QQYDRLPLS | 1.29 / 0.48 / 1.36 / 0.93 / 0.81 / 0.65 | 0.92 | 1/18 (2.23) |
| TLVQSVMGGSRTANSVA | NAETRYD | QHYHRLPLS | ND / 1.58 / 1.50 / 0.76 / 0.87 / 1.26 | 1.19 | 1/18 (2.29) |
| TISQSAQQETHNKNSVA | DLNVRGS | QQYDRLPLS | 0.48 / 0.80 / 0.45 / 0.57 / 0.90 / 0.72 | 0.66 | 0/18 |
| KLSITHQVESINKSNVA | EMVNRES | QQYDRLPLS | 1.72 / 1.67 / 1.14 / 1.60 / 1.43 / 1.85 | 1.57 | 1/18 (2.77) |
| MLSDLVKAGSRNTNSVA | DNSTRGS | QQYDRLPLS | 0.97 / 0.87 / 0.84 / 0.97 / 0.69 / 0.57 | 0.82 | 1/18 (1.93) |
| NFSQMVLTGSTLRNSVA | HASTRCE | QQYHRLPLI | 0.86 / 0.92 / 0.85 / 0.66 / 0.55 / 0.84 | 0.78 | 1/18 (3.78) |
| KIGHGLTTETRNRNSVA | QTETRVS | QHYHRLPLS | ND / 1.55 / ND / ND / 3.05 / ND | 2.30 | 0/18 |
| HISDLIMVASRNRNSVA | DESARPD | QQYHRLPLS | 0.56 / 0.42 / 0.52 / 0.57 / 0.54 / 0.68 | 0.55 | 1/18 (2.77) |
| KISMMYNFAQTNKNSIA | EMTTRES | QHYHRLPLS | 0.66 / 0.82 / 0.64 / 0.68 / 0.60 / 0.71 | 0.69 | 0/18 |
| ALGDVTRMESNKKNSIA | DMSNRMD | QQYHRLPLS | -0.02 / -0.23 / -0.15 / -0.14 / -0.24 / -0.09 | -0.14 | 1/18 (2.85) |
| ALSQSMDMTSLNRNSVA | DLTTREN | QQYHRLPLS | 1.82 / 0.98 / ND / 1.57 / 1.97 / 0.95 | 1.46 | 0/18 |
| KLSATYRFESQNKNNIA | EMTTRES | QCYHRLPLS | 1.44 / 0.57 / 0.09 / 0.88 / 0.61 / ND | 0.72 | 0/18 |
| IISQSFLGEYHNKNSVA | QTSERGQ | QQYDRLPLS | -0.25 / -0.51 / -0.61 / -0.67 / -0.50 / -0.35 | -0.48 | 0/18 |
| KLYQSMGYLSHNKNSIA | DMDRREN | QQYHRLPLS | 0.38 / 0.23 / 0.19 / -0.02 / 0.08 / 0.23 | 0.18 | 0/18 |
| TLSQVQGMEMHNKDNVA | DLSTRGN | QQYDRLPLS | 0.83 / 1.29 / 0.69 / 0.63 / 0.47 / 0.54 | 0.74 | 0/18 |
| KVNGLMNIEQMNSKSVA | HSSTREN | QQYHRLPLS | 0.55 / 0.66 / 0.58 / 0.30 / 0.41 / 0.71 | 0.54 | 2/18 (2.32) |
| KLLQTVGNGRYNRNNVA | HMTMRED | QQYFRLPLS | 2.63 / 1.94 / 2.26 / ND / 1.96 / 1.68 | 2.09 | 0/18 |
| KLSQSVRMESFVQDNVA | ENSTREA | QDYHRLPLS | ND / ND / ND / ND / ND / ND | ND | 0/18 |
| KISQTVNVGSKNKNSLA | EMSTREF | QDYHRLPLS | 0.83 / 1.11 / 0.95 / 0.90 / 1.22 / 1.33 | 1.06 | 0/18 |
| MISDLMYYGLRNVNSVA | DLSTRGN | QQYDRLPLS | 1.66 / 1.92 / 1.52 / 2.07 / 2.05 / 2.10 | 1.89 | 0/18 |
| KLSEISHFESKKKNSVA | ENNTREE | QQYDHLPLS | ND / 0.79 / 1.27 / 1.30 / ND / 1.33 | 1.17 | 0/18 |
| TIGQSSHETSRNKNSVA | HASTRED | QQYDRLPLS | 0.41 / 0.54 / 0.19 / 0.34 / 0.24 / 0.31 | 0.34 | 2/18 (1.69) |
| KLSISHQVESINKSNVA | EMVNRES | QQYDRLPLS | 1.25 / 1.48 / 1.15 / 1.00 / 2.34 / 1.95 | 1.53 | 0/18 |
| QLLMATMQGTYNRNSVA | HAETRED | QSYHRLPLS | ND / 2.07 / 1.15 / 1.63 / 1.36 / 1.60 | 1.56 | 0/18 |
| TISNSFMMENQFKNSVA | QAQTREN | QCYDRLPLS | 1.46 / 1.64 / 2.01 / 1.86 / 2.67 / 1.67 | 1.89 | 1/18 (0.46) |
| KLSMSVRMESFVKDNVA | ENSTREE | QDYHRLPLS | ND / 3.37 / ND / ND / ND / ND | 3.37 | 1/18 (1.86) |
| NVGQLMDGETRNRNNVA | HQSTRED | QHYHRLPLS | ND / 2.07 / 0.95 / 1.04 / 1.17 / 1.03 | 1.25 | 0/18 |
| KFSQMVNYESTHVNAVA | QMSTREE | QQYNRLPLS | 0.75 / 0.64 / 0.24 / 0.32 / 0.59 / 0.41 | 0.49 | 0/18 |
| KLIQSVAMMSRNKDSIA | DNSTREY | QQYHRLPLS | 1.07 / 1.07 / 0.98 / 1.04 / 0.89 / 1.15 | 1.04 | 0/18 |
| TISQSTYIESFNKNSVA | QTSTREE | QDYDRLPLS | 2.63 / ND / ND / ND / 2.89 / ND | 2.76 | 0/18 |
| KLLQTVMNGKRNRNNVA | HMTMRES | QQYFRLPLS | ND / 1.72 / ND / ND / ND / ND | 1.72 | 1/18 (2.42) |
| HISQSFMTESVWRNNVA | HQSTREQ | QQYDRLPFS | 1.39 / 0.81 / ND / 0.64 / 1.07 / 2.11 | 1.21 | 1/18 (1.85) |
| KLYFNVGTLSHDKQSIA | DMERRED | QQYHRLPLS | 0.59 / 0.39 / 1.04 / 0.35 / 0.32 / 0.26 | 0.49 | 0/18 |
| KLRMMTLTGGYFRNSVA | QASTREN | QSYHRLPLS | 1.19 / 1.63 / 1.05 / 2.14 / 0.71 / 1.36 | 1.35 | 4/18 (2.41) |
| NFSQMVLTGSTLRNSVA | HASTRNE | QQYHRLPLI | 1.02 / 0.70 / 0.69 / 1.21 / 1.05 / 1.36 | 1.01 | 2/18 (3.19) |
| TIGQVMNWESRNKNSVA | QTSEREE | QDYDRLPLS | 1.00 / 0.43 / 0.92 / 0.96 / 1.03 / 1.06 | 0.90 | 1/18 (1.99) |
| MISQSFMIGMKAKNSVA | QTNTREE | QQYDRLPLI | 1.27 / 0.86 / 1.05 / 1.90 / 1.08 / 1.27 | 1.24 | 0/18 |
| HISQQVGMTSRNKNSVA | ENSTRED | QQYDRLPLS | ND / ND / 3.05 / ND / 2.06 / 3.22 | 2.78 | 0/18 |

The 5 strongest on average among those seen in every replicate, once more:

{"CDR-L1": "IISQSFLGEYHNKNSVA", "CDR-L2": "QTSERGQ", "CDR-L3": "QQYDRLPLS", "log10 Kd (nM) by replicate": "-0.25 / -0.51 / -0.61 / -0.67 / -0.50 / -0.35", "mean, log10 nM": "-0.48", "control signals": "0/18"}
{"CDR-L1": "ALGDVTRMESNKKNSIA", "CDR-L2": "DMSNRMD", "CDR-L3": "QQYHRLPLS", "log10 Kd (nM) by replicate": "-0.02 / -0.23 / -0.15 / -0.14 / -0.24 / -0.09", "mean, log10 nM": "-0.14", "control signals": "1/18 (2.85)"}
{"CDR-L1": "KLYQSMGYLSHNKNSIA", "CDR-L2": "DMDRREN", "CDR-L3": "QQYHRLPLS", "log10 Kd (nM) by replicate": "0.38 / 0.23 / 0.19 / -0.02 / 0.08 / 0.23", "mean, log10 nM": "0.18", "control signals": "0/18"}
{"CDR-L1": "TIGQSSHETSRNKNSVA", "CDR-L2": "HASTRED", "CDR-L3": "QQYDRLPLS", "log10 Kd (nM) by replicate": "0.41 / 0.54 / 0.19 / 0.34 / 0.24 / 0.31", "mean, log10 nM": "0.34", "control signals": "2/18 (1.69)"}
{"CDR-L1": "KFSQMVNYESTHVNAVA", "CDR-L2": "QMSTREE", "CDR-L3": "QQYNRLPLS", "log10 Kd (nM) by replicate": "0.75 / 0.64 / 0.24 / 0.32 / 0.59 / 0.41", "mean, log10 nM": "0.49", "control signals": "0/18"}

The parent sequence was in this pool as ten entries: three were never detected, three once, and four in most replicates, with averages from 0.34 to 2.37.
As a blank, each scFv also met three strains without target: over all light chain designs, 4% of these pairings were detected, typically at 2.64 and seldom below 1.59. The control count says in how many pairings with the empty strains this scFv gave a signal, with their mean in brackets.
A sequence measured in both rounds can read differently, since the two assays cover different ranges.
The authors averaged sequences with at least three values out of six and counted those with two or fewer as poor binders.